# Apparent affinities of Ab-14 variants for a coronavirus HR2 peptide

Target peptide (SARS-CoV-2 spike, HR2 region): PDVDLGDISGINAS

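The starting antibody came from a phage panning campaign against this peptide. This is the validation round: designs drawn from the data on random variants, tested in the same kind of assay. Several design methods are mixed in this list. Affinity was read by AlphaSeq, a pooled yeast mating assay with surface-displayed partners. After mating in shaken culture at 30 °C for 16 h, diploids were selected and their barcode pairs sequenced. Read counts were normalised to the haploid input and turned into Kd by a linear fit to BCL2-family pairs of known affinity, for each replicate. There are six technical replicates.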

Parent scFv Ab-14: VH joined to VL by a 15-residue (Gly4Ser)3 linker. Changes lie in the light chain CDRs alone.
VH: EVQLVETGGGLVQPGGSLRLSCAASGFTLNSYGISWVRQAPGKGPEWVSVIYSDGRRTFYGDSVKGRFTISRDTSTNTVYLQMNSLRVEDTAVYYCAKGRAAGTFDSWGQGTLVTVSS
VL: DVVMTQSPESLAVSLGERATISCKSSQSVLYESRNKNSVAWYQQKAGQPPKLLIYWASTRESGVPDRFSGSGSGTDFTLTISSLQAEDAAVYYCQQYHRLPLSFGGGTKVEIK

The whole VL of each variant is written out.
Kd is apparent (estimated from mating counts) and averaged on the log scale over replicates with a signal. Smaller is tighter.
"no signal" means that the variant was in the library but no mating with the target was seen in any replicate; the authors take this as a sign of poor binding, and no number exists.
Empty control strains, which show no peptide, gave a signal in 4% of pairings with all light chain designs; the median was 430 nM and 95% of these signals were weaker than 38 nM. No background was subtracted.
The parent sequence was in this pool as ten entries: three were never detected, three once, and four in most replicates, with averages from 2.2 nM to 240 nM.
Values of this round are not directly comparable with the first-round values of the same sequences.
In the paper, a design with two or fewer of six values counts as a poor binder.

Variant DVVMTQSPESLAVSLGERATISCKNSVSVLYESRNKNSVAWYQQKAGQPPKLLIYWANTRESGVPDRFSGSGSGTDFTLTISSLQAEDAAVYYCQQYHRLPLSFGGGTKVEIK gave no signal (0 of 6 replicates).
Variant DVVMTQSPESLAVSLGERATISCMDEQSVLYESCNKNSVAWYQQKAGQPPKLLIYWASTRESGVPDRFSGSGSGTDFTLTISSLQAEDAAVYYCQVYHVLPLSFGGGTKVEIK gave no signal (0 of 6 replicates).
Variant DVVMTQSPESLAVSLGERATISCNIRGVEFESAMHGNSVAWYQQKAGQPPKLLIYGVDLREAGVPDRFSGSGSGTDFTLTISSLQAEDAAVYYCQQYFRLPLHFGGGTKVEIK gave 1.6 nM (6 of 6 replicates).
Variant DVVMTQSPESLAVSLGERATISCKLSMSYRYETENKNSIAWYQQKAGQPPKLLIYELVTRMSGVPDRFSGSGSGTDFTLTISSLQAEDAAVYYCQQYHRLPLSFGGGTKVEIK gave 26 nM (6 of 6 replicates).
Variant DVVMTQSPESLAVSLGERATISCKLQQSHLYESRNKNSVAWYQQKAGQPPKLLIYNASTRMSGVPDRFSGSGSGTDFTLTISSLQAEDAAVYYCQQYHRLPLSFGGGTKVEIK gave 1.9 nM (6 of 6 replicates).
Variant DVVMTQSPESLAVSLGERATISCKWEQSVMGESRNKNSVAWYQQKAGQPPKLLIYNASTRMSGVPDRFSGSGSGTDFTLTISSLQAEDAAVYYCQQYHRLPLSFGGGTKVEIK gave 1.4 nM (6 of 6 replicates).
Variant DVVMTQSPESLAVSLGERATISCKLQQSMEYESRWHNSVAWYQQKAGQPPKLLIYHASVRCDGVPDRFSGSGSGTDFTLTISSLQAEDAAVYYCQQYHRLPLSFGGGTKVEIK gave 4.0 nM (6 of 6 replicates).
Variant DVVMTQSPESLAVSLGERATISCKSSQSTLYESSNVNSVAWYQQKAGQPPKLLIYRASTRESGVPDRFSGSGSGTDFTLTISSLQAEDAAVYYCQMYHRLPLSFGGGTKVEIK gave 38 nM (4 of 6 replicates).
Variant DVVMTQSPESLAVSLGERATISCKISQMQRVGQTHGNSIAWYQQKAGQPPKLLIYEEQTRAKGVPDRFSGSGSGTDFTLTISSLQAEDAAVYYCQQYHRLPLSFGGGTKVEIK gave 2.7 nM (6 of 6 replicates).
Variant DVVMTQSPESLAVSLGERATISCKFSQSVLYESRMKNSVAWYQQKAGQPPKLLIYEASTRESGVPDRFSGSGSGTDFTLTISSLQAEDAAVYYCQQYHRLPLSFGGGTKVEIK gave 2.7 nM (6 of 6 replicates).
Variant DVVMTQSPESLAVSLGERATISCKVSQGIFDGERNSHQIAWYQQKAGQPPKLLIYEVTELCTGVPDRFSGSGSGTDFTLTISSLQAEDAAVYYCQQYSRLPLEFGGGTKVEIK gave 120 nM (6 of 6 replicates).
Variant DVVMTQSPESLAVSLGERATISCKLSQSVWYESRLKNSVAWYQQKAGQPPKLLIYNASTRMYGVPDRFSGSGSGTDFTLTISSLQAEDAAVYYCQQYHRLPLSFGGGTKVEIK gave 1.6 nM (6 of 6 replicates).
Variant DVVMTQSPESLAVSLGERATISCKSSQSVLYESRNHNSVAWYQQKAGQPPKLLIYWASTRESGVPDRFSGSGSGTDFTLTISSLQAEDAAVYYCQQYHRLPISFGGGTKVEIK gave no signal (0 of 6 replicates).
Variant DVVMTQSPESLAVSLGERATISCKMSPSQEYEDRNFNSVAWYQQKAGQPPKLLIYHASVREEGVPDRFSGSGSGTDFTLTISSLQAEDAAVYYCQQYHRLPLSFGGGTKVEIK gave 2.7 nM (6 of 6 replicates).
Variant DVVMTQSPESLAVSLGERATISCMISDLTYVGLRNVNSVAWYQQKAGQPPKLLIYDLSTRGNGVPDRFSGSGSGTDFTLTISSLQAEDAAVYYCQQYDRLPLSFGGGTKVEIK gave 6.2 nM (6 of 6 replicates).
Variant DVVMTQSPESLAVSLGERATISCKYSFSEGYESRNKNSVAWYQQKAGQPPKLLIYEASCREEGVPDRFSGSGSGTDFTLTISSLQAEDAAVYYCQQYHRLPLSFGGGTKVEIK gave 2.9 nM (6 of 6 replicates).
Variant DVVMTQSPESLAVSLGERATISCKLSMSDLYESRNSNSVAWYQQKAGQPPKLLIYMASTREKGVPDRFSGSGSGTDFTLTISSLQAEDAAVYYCQQYHRLPLSFGGGTKVEIK gave 17 nM (6 of 6 replicates).
Variant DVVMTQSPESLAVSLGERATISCKLEQSWPYESRNKNSVAWYQQKAGQPPKLLIYNASQRESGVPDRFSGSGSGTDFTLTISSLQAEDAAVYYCQQYHRLPLSFGGGTKVEIK gave 680 pM (6 of 6 replicates).
Variant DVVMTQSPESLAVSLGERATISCKLEMLVDYKDRNLNSVAWYQQKAGQPPKLLIYNASTRESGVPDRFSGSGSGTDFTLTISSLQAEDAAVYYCQQYHRLPLSFGGGTKVEIK gave 990 pM (6 of 6 replicates).
Variant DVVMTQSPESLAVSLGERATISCKQSESVLYESRNKNAVAWYQQKAGQPPKLLIYDASTRESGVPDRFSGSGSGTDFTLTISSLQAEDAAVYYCQQYHRLPLSFGGGTKVEIK gave 410 pM (6 of 6 replicates).
Variant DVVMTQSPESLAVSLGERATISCKSSISMLYESRNKNSVAWYQQKAGQPPKLLIYEASTRESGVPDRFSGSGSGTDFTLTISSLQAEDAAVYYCQQYHRLPLSFGGGTKVEIK gave 1.9 nM (6 of 6 replicates).
Variant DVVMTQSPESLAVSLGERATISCKSSWSVLPESRNKNSVAWYQQKAGQPPKLLIYDASTRESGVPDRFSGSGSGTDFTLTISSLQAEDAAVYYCQQYHRLPLSFGGGTKVEIK gave 920 pM (6 of 6 replicates).

The first 2 entries again:

| VL | Kd | seen in |
|---|---|---|
| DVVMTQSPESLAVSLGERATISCKNSVSVLYESRNKNSVAWYQQKAGQPPKLLIYWANTRESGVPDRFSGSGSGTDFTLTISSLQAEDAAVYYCQQYHRLPLSFGGGTKVEIK | no signal | 0 of 6 |
| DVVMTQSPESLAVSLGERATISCMDEQSVLYESCNKNSVAWYQQKAGQPPKLLIYWASTRESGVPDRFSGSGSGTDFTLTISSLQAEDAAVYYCQVYHVLPLSFGGGTKVEIK | no signal | 0 of 6 |

Source: Li et al. 2023 (doi:10.1038/s41467-023-39022-2), MIT Lincoln Laboratory and A-Alpha Bio; data file from the FLAb repository.